The target in series [1] is FVIIIa (activated factor VIII) (UniProt P00451).
For another series, the target named is FX (factor X) (UniProt P00742).

By UniProt entry, the sequences of proteins in these tests, tags left out. Where a name states a change or a piece, a line headed by the entry shows the natural chain unless it says otherwise.
UniProt P00451: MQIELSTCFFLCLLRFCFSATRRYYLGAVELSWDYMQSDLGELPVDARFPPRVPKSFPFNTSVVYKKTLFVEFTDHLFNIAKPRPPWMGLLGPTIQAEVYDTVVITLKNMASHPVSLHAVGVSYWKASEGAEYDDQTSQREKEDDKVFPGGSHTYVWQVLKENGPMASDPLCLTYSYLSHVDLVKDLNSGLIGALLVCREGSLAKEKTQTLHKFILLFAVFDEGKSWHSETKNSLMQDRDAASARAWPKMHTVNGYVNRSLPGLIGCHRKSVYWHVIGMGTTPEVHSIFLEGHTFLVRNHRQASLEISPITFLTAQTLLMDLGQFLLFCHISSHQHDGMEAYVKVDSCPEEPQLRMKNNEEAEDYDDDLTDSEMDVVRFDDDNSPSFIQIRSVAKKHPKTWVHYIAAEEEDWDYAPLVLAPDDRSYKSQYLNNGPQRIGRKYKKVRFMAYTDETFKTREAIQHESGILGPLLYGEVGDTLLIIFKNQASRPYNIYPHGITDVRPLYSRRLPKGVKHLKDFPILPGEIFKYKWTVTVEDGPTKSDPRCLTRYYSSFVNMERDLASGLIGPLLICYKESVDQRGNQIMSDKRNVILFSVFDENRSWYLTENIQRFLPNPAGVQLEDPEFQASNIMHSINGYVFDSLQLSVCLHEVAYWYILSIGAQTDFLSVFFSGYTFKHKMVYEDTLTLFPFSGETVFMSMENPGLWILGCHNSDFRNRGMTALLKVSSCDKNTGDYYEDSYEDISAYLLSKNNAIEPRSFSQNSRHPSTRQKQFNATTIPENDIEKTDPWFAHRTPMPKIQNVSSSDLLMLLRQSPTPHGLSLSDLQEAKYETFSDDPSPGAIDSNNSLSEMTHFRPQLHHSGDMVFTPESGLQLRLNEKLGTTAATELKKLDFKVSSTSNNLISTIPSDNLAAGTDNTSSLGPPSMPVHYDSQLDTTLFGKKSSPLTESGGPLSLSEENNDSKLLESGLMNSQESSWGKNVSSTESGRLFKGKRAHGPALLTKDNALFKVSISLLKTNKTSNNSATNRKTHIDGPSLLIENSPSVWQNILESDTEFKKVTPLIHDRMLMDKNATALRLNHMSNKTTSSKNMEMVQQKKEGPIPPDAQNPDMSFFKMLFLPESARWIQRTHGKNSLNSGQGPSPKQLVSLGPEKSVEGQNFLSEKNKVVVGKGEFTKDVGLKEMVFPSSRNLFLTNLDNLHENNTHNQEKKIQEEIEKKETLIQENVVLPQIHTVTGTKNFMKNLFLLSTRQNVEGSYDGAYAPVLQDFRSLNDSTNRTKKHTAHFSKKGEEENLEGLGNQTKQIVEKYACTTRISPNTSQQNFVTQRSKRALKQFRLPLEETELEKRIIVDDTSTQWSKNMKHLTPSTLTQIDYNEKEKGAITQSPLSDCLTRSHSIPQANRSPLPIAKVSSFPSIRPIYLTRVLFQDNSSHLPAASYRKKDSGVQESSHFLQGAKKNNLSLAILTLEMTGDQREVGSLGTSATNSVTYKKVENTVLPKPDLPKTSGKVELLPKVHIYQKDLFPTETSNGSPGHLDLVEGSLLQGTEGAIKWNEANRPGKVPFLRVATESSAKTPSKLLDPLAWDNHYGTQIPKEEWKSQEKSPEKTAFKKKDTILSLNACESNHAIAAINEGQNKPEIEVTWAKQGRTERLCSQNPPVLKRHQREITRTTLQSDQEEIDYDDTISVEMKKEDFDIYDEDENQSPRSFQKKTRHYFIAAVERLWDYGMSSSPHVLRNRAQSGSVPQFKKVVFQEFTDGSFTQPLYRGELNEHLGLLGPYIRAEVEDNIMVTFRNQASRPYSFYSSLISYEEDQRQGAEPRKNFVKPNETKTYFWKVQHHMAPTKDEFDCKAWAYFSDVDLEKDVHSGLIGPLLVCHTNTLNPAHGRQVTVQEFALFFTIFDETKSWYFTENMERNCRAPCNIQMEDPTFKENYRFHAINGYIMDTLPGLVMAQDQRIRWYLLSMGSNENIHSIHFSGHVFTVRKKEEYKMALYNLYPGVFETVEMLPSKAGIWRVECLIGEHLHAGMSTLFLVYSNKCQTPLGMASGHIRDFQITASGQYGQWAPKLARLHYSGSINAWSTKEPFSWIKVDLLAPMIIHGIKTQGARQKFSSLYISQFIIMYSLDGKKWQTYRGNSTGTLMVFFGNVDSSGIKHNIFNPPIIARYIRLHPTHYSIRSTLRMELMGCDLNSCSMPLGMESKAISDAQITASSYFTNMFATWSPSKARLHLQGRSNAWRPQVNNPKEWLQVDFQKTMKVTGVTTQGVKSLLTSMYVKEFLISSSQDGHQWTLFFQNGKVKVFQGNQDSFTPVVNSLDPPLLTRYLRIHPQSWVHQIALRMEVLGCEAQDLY
UniProt P00742, whole entry, looked up: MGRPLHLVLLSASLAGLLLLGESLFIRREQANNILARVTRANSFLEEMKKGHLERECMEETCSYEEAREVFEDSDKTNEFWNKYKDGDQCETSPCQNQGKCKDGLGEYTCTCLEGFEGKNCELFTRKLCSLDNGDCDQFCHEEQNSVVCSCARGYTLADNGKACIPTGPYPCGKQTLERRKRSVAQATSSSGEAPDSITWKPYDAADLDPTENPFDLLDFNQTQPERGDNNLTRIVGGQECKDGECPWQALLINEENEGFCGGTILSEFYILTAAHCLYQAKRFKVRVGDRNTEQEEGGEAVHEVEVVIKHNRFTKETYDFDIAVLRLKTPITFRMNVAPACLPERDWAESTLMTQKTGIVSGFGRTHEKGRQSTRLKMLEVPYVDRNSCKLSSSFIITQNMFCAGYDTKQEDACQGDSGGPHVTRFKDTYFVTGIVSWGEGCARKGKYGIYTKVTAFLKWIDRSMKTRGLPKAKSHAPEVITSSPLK

On to “R338A-FIXa (activated Factor IX with alanine at position 338)”, for which the “maximum rate of FX cleavage, fold against wt-FIXa” value in series [1] is 2.7 fold greater for activated R338A-FIX than for wt-FIXa. In the series with FX (factor X), the Kcat, with FVIIIa 0.1 nM (FIXa-FVIIIa complex) was 1.33 s⁻¹; the Kcat, with FVIIIa 0.4 nM (FIXa-FVIIIa complex) is 1.13 s⁻¹; the Kcat, without FVIIIa turned out to be 0.0016 s⁻¹; the Kcat/Km, with FVIIIa 0.1 nM (FIXa-FVIIIa complex) is 1.72e+08 M⁻¹ s⁻¹. For the same substance, in the series with FX (factor X), the Kcat/Km, with FVIIIa 0.4 nM (FIXa-FVIIIa complex) turned out to be 9.24e+07 M⁻¹ s⁻¹; the Kcat/Km, without FVIIIa is 29900 M⁻¹ s⁻¹; the Km, with FVIIIa 0.1 nM (FIXa-FVIIIa complex) came out at 0.00772 µM; the Km, with FVIIIa 0.4 nM (FIXa-FVIIIa complex) was 0.0122 µM. Further, in the series with FX (factor X), the Km, without FVIIIa is 0.0535 µM; the Vmax, with FVIIIa 0.1 nM (FIXa-FVIIIa complex) (nM FXa min^-1) worked out at 2.47; the Vmax, with FVIIIa 0.4 nM (FIXa-FVIIIa complex) (nM FXa min^-1) stood at 5.42; the Vmax, without FVIIIa (nM FXa min^-1) worked out at 2.58.

The record behind these values is patent publication US20020031799A1.
